Values quoted from earlier work in patent publication US12636290B2, “BET inhibitors for modulating DUX4 expression in FSHD” (Saint Louis University, priority 2018, dated 2026).

Sequences of proteins named here, by UniProt entry; tags and fusion partners are left off.
UniProt Q16539, whole entry: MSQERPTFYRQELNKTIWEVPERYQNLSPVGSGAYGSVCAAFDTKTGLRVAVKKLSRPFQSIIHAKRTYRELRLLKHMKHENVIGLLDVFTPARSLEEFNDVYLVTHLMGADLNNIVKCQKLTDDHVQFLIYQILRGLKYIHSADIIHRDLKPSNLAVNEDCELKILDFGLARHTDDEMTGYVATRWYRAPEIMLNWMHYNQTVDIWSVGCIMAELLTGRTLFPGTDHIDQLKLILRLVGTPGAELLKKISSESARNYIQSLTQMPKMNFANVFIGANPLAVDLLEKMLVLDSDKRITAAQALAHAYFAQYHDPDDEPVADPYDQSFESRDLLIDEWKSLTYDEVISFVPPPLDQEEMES

Biological target: p38α (Homo sapiens, UniProt Q16539)
Conditions: p38α versus p38β; cited from earlier work

In the case of `Cn1c(=O)c(Oc2ccc(F)cc2F)cc2cnc(NC(CCO)CCO)nc21` [Pamapimod], the “selective over p38β” value is listed as “p38α, 34X selective over p38β”.
